Source: patent US20170340636A1, “COMPOSITIONS AND METHODS FOR INHIBITION OF AUTOPHAGY” (Board of Regents, The University of Texas System, priority 2016, published 2017)

Amino acid sequences for entries named in this document (tags omitted).
UniProt Q99683, whole entry: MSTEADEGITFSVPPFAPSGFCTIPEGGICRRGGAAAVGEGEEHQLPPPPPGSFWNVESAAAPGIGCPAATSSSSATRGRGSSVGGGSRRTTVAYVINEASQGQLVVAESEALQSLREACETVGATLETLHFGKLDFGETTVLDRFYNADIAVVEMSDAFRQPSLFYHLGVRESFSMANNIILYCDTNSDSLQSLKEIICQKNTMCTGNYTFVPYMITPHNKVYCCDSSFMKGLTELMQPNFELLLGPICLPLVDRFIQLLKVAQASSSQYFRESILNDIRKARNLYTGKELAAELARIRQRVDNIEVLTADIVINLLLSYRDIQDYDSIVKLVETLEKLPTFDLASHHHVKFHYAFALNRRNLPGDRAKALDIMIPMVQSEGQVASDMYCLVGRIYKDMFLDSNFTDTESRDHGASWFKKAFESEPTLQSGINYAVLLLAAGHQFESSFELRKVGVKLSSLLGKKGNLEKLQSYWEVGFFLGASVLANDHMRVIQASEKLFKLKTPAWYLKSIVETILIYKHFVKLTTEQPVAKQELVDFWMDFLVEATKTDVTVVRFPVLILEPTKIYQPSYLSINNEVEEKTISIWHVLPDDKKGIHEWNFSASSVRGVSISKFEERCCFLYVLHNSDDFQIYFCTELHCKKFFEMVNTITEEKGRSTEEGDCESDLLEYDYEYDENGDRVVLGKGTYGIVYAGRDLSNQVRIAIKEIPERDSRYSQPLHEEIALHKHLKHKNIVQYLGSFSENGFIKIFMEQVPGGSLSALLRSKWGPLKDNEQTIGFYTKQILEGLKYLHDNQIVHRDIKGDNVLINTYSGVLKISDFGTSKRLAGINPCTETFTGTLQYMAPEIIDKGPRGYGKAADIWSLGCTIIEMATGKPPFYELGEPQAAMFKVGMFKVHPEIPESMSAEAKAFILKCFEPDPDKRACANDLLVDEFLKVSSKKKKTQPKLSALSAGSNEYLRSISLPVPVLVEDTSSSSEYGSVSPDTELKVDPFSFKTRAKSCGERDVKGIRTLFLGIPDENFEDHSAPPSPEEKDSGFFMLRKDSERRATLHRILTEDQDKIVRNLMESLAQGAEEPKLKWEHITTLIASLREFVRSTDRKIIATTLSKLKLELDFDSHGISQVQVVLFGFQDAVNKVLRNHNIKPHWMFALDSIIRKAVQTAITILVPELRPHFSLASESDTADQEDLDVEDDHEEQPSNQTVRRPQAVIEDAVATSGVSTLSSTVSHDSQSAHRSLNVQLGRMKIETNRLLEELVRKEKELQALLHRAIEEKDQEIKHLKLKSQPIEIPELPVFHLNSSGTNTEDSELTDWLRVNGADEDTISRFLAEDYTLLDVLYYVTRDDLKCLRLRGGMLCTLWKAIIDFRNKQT
UniProt Q16539, whole entry: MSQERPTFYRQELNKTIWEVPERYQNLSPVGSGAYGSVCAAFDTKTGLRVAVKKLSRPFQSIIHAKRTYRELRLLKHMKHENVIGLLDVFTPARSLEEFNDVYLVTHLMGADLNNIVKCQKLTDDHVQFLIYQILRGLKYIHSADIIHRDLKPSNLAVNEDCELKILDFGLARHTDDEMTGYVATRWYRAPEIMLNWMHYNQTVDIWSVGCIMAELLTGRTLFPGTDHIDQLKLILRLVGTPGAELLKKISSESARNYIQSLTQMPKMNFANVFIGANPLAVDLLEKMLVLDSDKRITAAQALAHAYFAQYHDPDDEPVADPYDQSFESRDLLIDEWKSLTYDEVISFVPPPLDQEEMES

Key:
U2OS GFP-LC3 cells = test: p62 accumulation by western blot (autophagic flux); details: 50 μM, 24 hours
Experimental: FIG. 4A) U2OS cells stably expressing the GFP-LC3 fusion transgene were treated with the indicated compound at 50 μM concentration for 24 hours before GFP fluorescence was measured by flow cytometry. The median fluorescent value from 20,000 cells per condition was normalized to that of vehicle alone (DMSO) within a given experiment. The mean+SD of >2 independent experiments is shown. ****, p<0.0001; ***, p<0.001; **, p<0.01; ns, p>0.05 versus vehicle alone (DMSO) by unpaired t test. FIG. 4B) TAOK2 inhibitors induce accumulation of p62. U2OS GFP-LC3 cells were treated with the indicated compounds at 50 μM concentration, or DMSO alone, for 24 hours. Lysates were collected and analyzed by western blot using the indicated antibodies. XPB was used as a loading control.
U2OS GFP-LC3 cells were seeded in 6-well plates at 150,000 cells per well in Dulbecco's Modified Eagle Medium supplemented with 10% fetal bovine serum. Twenty-four hours after seeding, the indicated compounds were added to a final concentration of 50 µM, or an equivalent volume of vehicle alone (DMSO) was added. Twenty-four hours after compound addition, cells were rinsed twice with PBS and then lysed in 2× sample buffer. […] Membranes were then washed, incubated with secondary antibody in blocking solution, washed again, and analyzed by enhanced chemiluminescence followed by exposure to film. […]

ASK1 = ASK1 (Homo sapiens, UniProt Q99683); test: DSF against ASK1 (selectivity panel of MAPK cascade members); details: difference between the TAOK2 ΔTm and that of ASK1, DSF
Experimental: (§1) Differential scanning fluorimetry binding assays of selected compounds against TAOK2 were conducted to measure strength of compound binding. A solution of 5 μM TAOK2, 50 mM MgCl2, 50 mM HEPES pH 7.5, and 2.5x SyproOrange(Life Technologies) was made. Compound was added to a final concentration of 1 μM. 25 μl of the reaction solution was added to the wells of a Biorad Multiplate 96 wellclear PCR plate. The plate was covered with a Biorad Microseal ‘B’ seal. Plates were read in a Biorad CFX96 Real-Time PCR system. The temperature was increased from 4° C. to 80° C., with fluorescence measurements being taken every 0.5° C. in the 6-FAM Fluorescein channel. The fluorescence response to heat curve was fit to a binding isotherm in order to determine the inflection point, which was taken as the melt temperature (Tm).
(§2) The difference between the TAOK2 ΔTm and that of p38 and ASK1 was determined. […] The majority of the other compounds were also preferentially inhibitory toward TAOK2. Of the 13 compounds, SW034538, SW172006 and SW083688 were cross-verified for selectivity by performing a specificity screen against 45 kinases commercially at Eurofins Cerep, Inc. (FIG. 3).

p38 = p38 (Homo sapiens, UniProt Q16539); test: DSF against p38 (selectivity panel of MAPK cascade members); details: difference between the TAOK2 ΔTm and that of p38, DSF
Experimental: as §1, §2

Compound: O=C(Nc1cccc(-c2nc3ccccc3c(=O)o2)c1)c1ccccc1Br
- abundance of p62 (U2OS GFP-LC3 cells): increased the abundance of p62

Compound: c1cc2[nH]c3c(c2c2nonc12)CCCC3
- ΔΔTm (ASK1) (ASK1): −0.0 °C

Compound: Cc1ccc(C(=O)CSc2nnc(-c3ccncc3)[nH]2)c(C)c1
- ΔΔTm (p38) (p38): 0.0 °C
